US20030144346A1, “Methods and compositions for regulation of 5-alpha reductase activity” (priority 1997, published 2003)

Columns and labels:
[1] = molecular target: T1, type 2 human 5α-reductase (HRED2) (Homo sapiens, UniProt P31213); test: Cell free assay of 5α-reductase, microsomes of rat 1A cells expressing type 2 isoenzyme (HRED2); assay type: biochemical; set-up: expressed in transfected cells; host or cells: rat 1A cells infected with pMV7 retrovirus; microsomes;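 also: labeled testosterone and its product dihydrotestosterone measured in microsomal reaction extracts via thin layer chromatography plus radioanalytic scanning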
T1 sequence (P31213 1-254): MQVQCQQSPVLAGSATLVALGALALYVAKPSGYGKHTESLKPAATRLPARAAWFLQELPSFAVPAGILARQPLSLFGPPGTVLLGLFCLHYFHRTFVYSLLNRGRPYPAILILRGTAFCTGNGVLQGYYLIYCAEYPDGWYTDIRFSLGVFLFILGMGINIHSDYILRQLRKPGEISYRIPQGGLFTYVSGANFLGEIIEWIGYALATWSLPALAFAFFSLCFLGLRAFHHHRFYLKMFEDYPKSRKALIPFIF

[2] = molecular target: T1, type 2 human 5α-reductase (HRED2); test: Whole cell assay of 5α-reductase, type 2 isoenzyme; assay type: cell-based; set-up: expressed in transfected cells; host or cells: rat 1A cells infected with pMV7 retrovirus; details: Table 7;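 also: intact rat 1A cells genetically modified to carry human type 2 5α-reductase served as the enzyme source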
[3] = molecular target: T2, type 1 human 5α-reductase (HRED1) (Homo sapiens, UniProt P18405); test: Cell free assay of 5α-reductase, microsomes of rat 1A cells expressing type 1 isoenzyme (HRED1); assay type: biochemical; set-up: expressed in transfected cells; host or cells: rat 1A cells infected with pMV7 retrovirus; microsomes; details: read-out: HRED1 % Inhibition @ 100 uM;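 also: microsomes from rat 1A cells expressing human type 1 5α-reductase, conversion of radiolabeled testosterone to dihydrotestosterone quantified by thin layer chromatography with radioanalytic scanning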
T2 sequence (P18405 1-259): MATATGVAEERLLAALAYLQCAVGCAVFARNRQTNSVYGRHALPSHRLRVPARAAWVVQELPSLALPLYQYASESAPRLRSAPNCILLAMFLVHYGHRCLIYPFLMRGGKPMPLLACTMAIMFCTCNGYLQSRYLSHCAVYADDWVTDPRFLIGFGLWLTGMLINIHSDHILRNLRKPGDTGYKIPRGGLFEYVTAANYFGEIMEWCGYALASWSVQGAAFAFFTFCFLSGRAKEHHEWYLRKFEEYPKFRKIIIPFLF

O=c1c(O)c(-c2ccc(O)cc2)oc2cc(O)cc(O)c12 [Kaempferol]
inhibitory activity against type 2 isoenzyme, in words ([1]; cell-free assay): effective inhibitors

O=c1c(-c2ccc(O)cc2)coc2cc(O)cc(O)c12 [Genistein]
inhibition at 100 µM ([1]; read-out: HRED2 % Inhibition @ 100 uM): 76%
inhibition at 100 µM [2]: 89%
inhibition at 100 µM [3]: 16%
